Test results reported in patent US11191910B2, “Medical unit dose container” (dated 2021).
Marks after values point to notes of the source that are not given here.

How the values were obtained:
[1] = Nasal cavity deposition of dry powder 2-PAM with coomassie blue in rats (POD device); details: rat
[2] = Tissue distribution (plasma and brain) of 2-PAM in rats after POD or intravenous administration; details: rat

2-pyridine aldoxime methyl chloride
Dye localization in the nasal cavity after POD administration ([1]; dry powder 2-PAM 2.5 mg with 0.1% coomassie blue, <5 minutes after dosing): deposited primarily within this olfactory region | Drug found in the trachea or esophagus after POD administration ([1]; dry powder 2-PAM with coomassie blue): none | Brain concentrations, powder POD compared to aqueous 2-PAM POD ([2]; 5 and 15 minutes after administration): significantly higher | Brain concentration after POD compared to IV administration ([2]; 5 minutes after administration): 3.5 × | Brain-to-plasma ratio ([2]; IV 2-PAM, 2.5 mg, 5 min): 8.7 | Brain-to-plasma ratio ([2]; IV 2-PAM, 2.5 mg, 15 min): 13.1 | Brain-to-plasma ratio ([2]; IV 2-PAM, 2.5 mg, 30 min): 16.8 | Brain-to-plasma ratio ([2]; IV 2-PAM, 2.5 mg, 60 min): 11.7 | Brain-to-plasma ratio ([2]; IV 2-PAM, 2.5 mg, 120 min): 6.7 | Brain 2-PAM concentration ([2]; IV, 2.5 mg, 5 min): 11.9 ng/g tissue | Plasma 2-PAM concentration ([2]; IV, 2.5 mg, 5 min): 1.42* ng/g tissue | Brain 2-PAM concentration ([2]; IV, 2.5 mg, 15 min): 9.0 ng/g tissue | Plasma 2-PAM concentration ([2]; IV, 2.5 mg, 15 min): 0.73* ng/g tissue | Direct transport percentage (% DTP) to the brain ([2]; aqueous 2-PAM via POD vs IV): 80.9% | Brain-to-plasma ratio ([2]; aqueous 2-PAM via POD, 2.5 mg, 5 min): 133 | Brain-to-plasma ratio ([2]; aqueous 2-PAM via POD, 2.5 mg, 15 min): 58.5 | Brain-to-plasma ratio ([2]; aqueous 2-PAM via POD, 2.5 mg, 30 min): 41.1 | Brain-to-plasma ratio ([2]; aqueous 2-PAM via POD, 2.5 mg, 60 min): 61.4 | Brain-to-plasma ratio ([2]; aqueous 2-PAM via POD, 2.5 mg, 120 min): 127 | Brain 2-PAM concentration ([2]; aqueous POD, 2.5 mg, 5 min): 41.6 ng/g tissue | Plasma 2-PAM concentration ([2]; aqueous POD, 2.5 mg, 5 min): 0.44 ng/g tissue | Plasma 2-PAM concentration ([2]; aqueous POD, 2.5 mg, 15 min): 0.33 ng/g tissue | Total brain concentration AUC after POD compared to IV ([2]; aqueous formulation, 2.5 mg): significantly greater | Total plasma AUC after POD compared to IV administration ([2]; aqueous formulation, 2.5 mg): significantly lower | Brain 2-PAM concentration ([2]; powder POD, 5 min): 106.19* ng/g tissue | Plasma 2-PAM concentration ([2]; powder POD, 5 min): 0.46 ng/g tissue | Brain 2-PAM concentration ([2]; powder POD, 15 min): 293.32 ng/g tissue | Plasma 2-PAM concentration ([2]; powder POD, 15 min): 0.38 ng/g tissue
